Experiments:
[1] = Thermodynamic aqueous solubility studies (de-ionized water, 24 h, HPLC concentration, filtrate pH, XRPD of solid)
[2] = Stability stress testing (ambient light, 40° C./75% RH, 80° C., 7 days; XRPD and HPLC purity); type: physicochemical; conditions: HPLC purity after 7 days, open vial
Procedure: Approximately 5 mg of the appropriate samples were placed into 2 mL clear glass vials and the vials were all stored open under the conditions of ambient light, 40° C./75% RH, and 80° C. for 7 days, respectively. The ambient light sample was left open on the bench at room temperature. The 80° C. sample was placed open into an 80° C. oven.

isopropyl 2-((5-acrylamido-4-((2-(dimethylamino)ethyl) (methyl)amino)-2-methoxyphenyl)amino)-4-(1-methyl-1H-indol-3-yl)pyrimidine-5-carboxylate hippurate
Solubility in Water ([1]; de-ionized water (pH 6.97), slurry shaken at ambient temperature for 24 h, filtrate by HPLC, salts of Compound (A)): 100 µg/mL
pH at Saturation ([1]; pH of filtrate after 24 h slurry in de-ionized water (pH 6.97), ambient temperature): 5.61
Purity, 40° C./75% RH [2]: 99.6
